# Data from PubChem BioAssay AID504905 (The Scripps Research Institute Molecular Screening Center, 2011).
# The chains behind the UniProt entries cited, without tags or fusion partners.
# UniProt P47898, whole entry: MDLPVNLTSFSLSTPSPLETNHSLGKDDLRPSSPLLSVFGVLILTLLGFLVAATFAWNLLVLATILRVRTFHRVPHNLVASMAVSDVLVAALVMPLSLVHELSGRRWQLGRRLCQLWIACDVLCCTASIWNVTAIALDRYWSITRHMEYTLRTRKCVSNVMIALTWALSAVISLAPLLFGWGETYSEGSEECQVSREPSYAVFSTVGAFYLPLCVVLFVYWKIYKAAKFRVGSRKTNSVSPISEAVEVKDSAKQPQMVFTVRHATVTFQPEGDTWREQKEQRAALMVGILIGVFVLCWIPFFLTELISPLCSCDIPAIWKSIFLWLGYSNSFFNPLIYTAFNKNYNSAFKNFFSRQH
# Only a part is listed here, and it is no random draw. Activity calls are given as the source filed them. Rule as the data show it: active = activation above about 17%; inactive = the rest.
# Target: 5-hydroxytryptamine receptor 5A (Homo sapiens) (UniProt P47898)
# Assay: HTR5A agonists in cells, counter-screen for OPRM1-OPRD1 heterodimer agonist project, cell-based, luminescence (AID 504905);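 also: 0% = vehicle-treated cells and 100% = reference agonist response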
# Conditions: HTR5A agonist counterscreen, at 9.3 µM, hits give high values
structure (smiles),measurement,value
CN(C)C1(CNC(=O)c2ccc(Cl)c(S(N)(=O)=O)c2)CCCCC1,activation,inactive: 5.09%
